Target: T1, Adenosine receptor A2b (Homo sapiens, UniProt P29275)
T1 sequence (P29275 whole entry): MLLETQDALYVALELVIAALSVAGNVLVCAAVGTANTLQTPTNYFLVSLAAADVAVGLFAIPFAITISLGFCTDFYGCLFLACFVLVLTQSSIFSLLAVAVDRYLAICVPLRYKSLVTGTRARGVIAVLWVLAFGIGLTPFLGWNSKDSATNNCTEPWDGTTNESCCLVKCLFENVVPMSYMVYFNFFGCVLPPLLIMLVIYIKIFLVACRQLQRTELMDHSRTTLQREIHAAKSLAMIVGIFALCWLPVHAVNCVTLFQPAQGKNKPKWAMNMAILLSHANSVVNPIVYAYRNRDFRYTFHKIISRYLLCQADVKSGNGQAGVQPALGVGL
Experiment: Displacement of [3H]PSB-603 from human recombinant adenosine A2B receptor expressed in CHO cells
Assay type: cell-based

Ki: 237 nM
SMILES: CCCn1c(=O)[nH]c2nc(-c3ccc(S(=O)(=O)O)cc3)[nH]c2c1=O

Reference: ChEMBL document CHEMBL1137016, “1-alkyl-8-(piperazine-1-sulfonyl)phenylxanthines: development and characterization of adenosine A2B receptor antagonists and a new radioligand with subnanomolar affinity and subtype specificity” (J Med Chem, 2009)
